Measurements from patent US6074625A, “Boron-containing hormone analogs and methods of their use in imaging or killing cells having hormone receptors” (Neutron Therapies Inc., priority 1997, dated 2000).

Biological target: T1, androgen receptors (Rattus norvegicus, UniProt P15207)
T1 construct: from tissue; host or cells: rat ventral prostate cytosol
T1 sequence (P15207 1-902): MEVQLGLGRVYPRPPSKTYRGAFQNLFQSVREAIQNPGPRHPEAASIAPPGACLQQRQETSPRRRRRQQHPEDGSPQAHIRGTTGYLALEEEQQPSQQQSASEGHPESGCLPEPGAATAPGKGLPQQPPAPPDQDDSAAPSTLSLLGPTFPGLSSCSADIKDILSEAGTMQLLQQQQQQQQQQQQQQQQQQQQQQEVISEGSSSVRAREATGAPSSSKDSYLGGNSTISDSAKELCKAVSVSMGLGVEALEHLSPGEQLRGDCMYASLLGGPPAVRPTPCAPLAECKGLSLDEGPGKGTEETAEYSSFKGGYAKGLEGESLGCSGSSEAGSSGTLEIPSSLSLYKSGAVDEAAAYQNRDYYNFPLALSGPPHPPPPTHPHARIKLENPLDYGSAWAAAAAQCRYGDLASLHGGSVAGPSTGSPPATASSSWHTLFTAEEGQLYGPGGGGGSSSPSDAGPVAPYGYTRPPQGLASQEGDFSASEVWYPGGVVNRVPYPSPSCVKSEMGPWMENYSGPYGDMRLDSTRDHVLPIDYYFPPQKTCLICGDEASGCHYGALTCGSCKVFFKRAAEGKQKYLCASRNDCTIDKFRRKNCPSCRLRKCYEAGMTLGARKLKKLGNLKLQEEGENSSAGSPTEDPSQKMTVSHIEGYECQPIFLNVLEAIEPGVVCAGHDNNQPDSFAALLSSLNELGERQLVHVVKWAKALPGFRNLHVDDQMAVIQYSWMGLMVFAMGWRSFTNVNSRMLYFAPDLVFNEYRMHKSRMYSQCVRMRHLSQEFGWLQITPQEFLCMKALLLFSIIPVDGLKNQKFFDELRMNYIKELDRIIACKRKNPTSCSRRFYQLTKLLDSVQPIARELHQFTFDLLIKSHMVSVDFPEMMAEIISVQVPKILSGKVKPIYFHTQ
Experiment: Androgen receptor binding: inhibition of [^3 H] mibolerone binding in rat ventral prostate cytosol
Details: 2 nM [^3 H] mibolerone, 18 hrs at 4° C
Description: The specificity of the compound of Example I for androgen receptors was determined in a standard androgen receptor assay. See Schilling et al., "The Use of Radioactive 7α, 17α-dimethyl-19-nortestosterone (Mibolerone) in the Assay of Androgen Receptors," The Prostate, 5:581-588 (1984); Traish et al., "Binding of 7α, 17-α-dimethyl- 19-nortestosterone (Mibolerone) to Androgen and Progesterone Receptors in Human and Animal Tissues," Endocrinology 118:1327-1333 (1986). Cytosol prepared from rat ventral prostate was incubated with 2 nM [^3 H] mibolerone (DMNT) for 18 hrs at 4° C. The reaction mixture was then incubated with a hydroxy apatite slurry containing various concentrations of N-(2'-closo-carboranylacetyl)-3-trifluoromethyl-4-nitroaniline 3 from Example 1, as shown below. The mixtures were then filtered through glass fiber filters, washed three times and counted to determine the inhibition of mibolerone binding to the androgen receptors.

N-(2'-closo-carboranylacetyl)-3-trifluoromethyl-4-nitroaniline [Compound 3]
[^3 H] Mibolerone Binding Inhibition, % Inhibition (boron agent 0.01 μM): 3%
[^3 H] Mibolerone Binding Inhibition, % Inhibition (boron agent 0.1 μM): 3%
[^3 H] Mibolerone Binding Inhibition, % Inhibition (boron agent 1 μM): 7%
[^3 H] Mibolerone Binding Inhibition, % Inhibition (boron agent 10 μM): 29%
[^3 H] Mibolerone Binding Inhibition, % Inhibition (boron agent 100 μM): 85%
